The values below come from patent US11958846B2, “Urea compounds and compositions as SMARCA2/BRM ATPase inhibitors” (Novartis AG, priority 2018, dated 2024).

By UniProt entry, the sequences of proteins in these tests, tags left out.
UniProt P51531, whole entry, looked up: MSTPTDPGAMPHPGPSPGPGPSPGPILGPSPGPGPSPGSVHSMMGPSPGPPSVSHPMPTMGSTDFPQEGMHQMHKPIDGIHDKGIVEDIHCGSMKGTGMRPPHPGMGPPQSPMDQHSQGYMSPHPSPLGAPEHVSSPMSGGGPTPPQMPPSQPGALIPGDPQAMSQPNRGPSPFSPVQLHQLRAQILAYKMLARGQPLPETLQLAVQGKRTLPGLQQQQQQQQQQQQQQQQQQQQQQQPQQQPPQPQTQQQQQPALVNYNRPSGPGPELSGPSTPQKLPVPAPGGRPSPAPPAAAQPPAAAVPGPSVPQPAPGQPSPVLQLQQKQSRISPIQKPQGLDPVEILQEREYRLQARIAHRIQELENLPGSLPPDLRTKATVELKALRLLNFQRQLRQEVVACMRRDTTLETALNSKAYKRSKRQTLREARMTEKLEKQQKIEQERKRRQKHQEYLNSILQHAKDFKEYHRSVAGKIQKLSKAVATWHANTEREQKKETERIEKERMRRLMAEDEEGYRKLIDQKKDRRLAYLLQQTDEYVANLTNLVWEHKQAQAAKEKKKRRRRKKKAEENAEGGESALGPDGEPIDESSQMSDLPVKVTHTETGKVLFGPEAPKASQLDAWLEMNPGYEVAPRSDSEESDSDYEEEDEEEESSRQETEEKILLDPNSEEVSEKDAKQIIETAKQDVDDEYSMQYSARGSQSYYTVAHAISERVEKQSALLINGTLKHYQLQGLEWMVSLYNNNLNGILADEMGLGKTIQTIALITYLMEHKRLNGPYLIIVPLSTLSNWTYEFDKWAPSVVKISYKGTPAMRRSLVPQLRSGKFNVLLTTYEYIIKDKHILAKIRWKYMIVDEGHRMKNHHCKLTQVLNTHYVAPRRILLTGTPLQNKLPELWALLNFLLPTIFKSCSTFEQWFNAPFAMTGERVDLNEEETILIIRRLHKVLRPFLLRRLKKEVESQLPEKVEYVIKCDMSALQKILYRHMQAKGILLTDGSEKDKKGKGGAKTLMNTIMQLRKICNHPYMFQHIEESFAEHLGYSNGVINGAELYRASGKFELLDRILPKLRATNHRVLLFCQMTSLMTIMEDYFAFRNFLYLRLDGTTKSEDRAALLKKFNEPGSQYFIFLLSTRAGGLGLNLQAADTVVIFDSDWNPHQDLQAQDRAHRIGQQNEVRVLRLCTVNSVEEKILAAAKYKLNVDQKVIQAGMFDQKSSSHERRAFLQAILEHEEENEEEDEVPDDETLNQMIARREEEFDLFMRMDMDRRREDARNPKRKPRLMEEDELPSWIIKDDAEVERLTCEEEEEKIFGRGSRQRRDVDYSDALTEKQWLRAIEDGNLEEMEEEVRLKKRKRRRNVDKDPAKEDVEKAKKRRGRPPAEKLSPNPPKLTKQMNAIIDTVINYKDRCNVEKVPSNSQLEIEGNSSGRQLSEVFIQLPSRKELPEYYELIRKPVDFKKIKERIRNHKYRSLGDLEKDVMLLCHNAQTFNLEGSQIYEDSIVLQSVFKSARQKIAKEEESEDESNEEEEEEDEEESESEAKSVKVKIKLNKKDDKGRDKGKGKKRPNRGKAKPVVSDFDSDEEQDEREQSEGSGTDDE

The assay has as its target Brm ATPase-SnAC (636-1331) (Homo sapiens, UniProt P51531). Description: BRM ATPase Inhibition Assay (ADP-Glo). The format is biochemical. The following applies: 5 nM BRM ATPase-SnAC, 85 μM ATP, 2 nM pCMV-dR8.91 plasmid, 60 min RT. The method, then: BRM ATPase Inhibition Assay
Compound inhibition of ATPase activity of Brm ATPase-SnAC (636-1331) was measured by using the ADP-Glo assay kit from Promega (V6930). 120 nL of compound in 100% DMSO were transferred to a white 384 well microtiter assay plate using an ATS Acoustic Transfer System from EDC Biosystems. All subsequent reagent additions were performed using a MultiFlo FX Multi-Mode Dispenser. Assay buffer was 20 mM HEPES pH 7.5, 1 mM MgCl2, 20 mM KCl, 1 mM DTT, 0.01% BSA, 0.005% Tween 20. 4 μL of 7.5 nM Brm ATPase-SnAC in assay buffer was added to the assay plate and incubated at RT for 5 min with compound. 2 μL of 255 μM ATP and 6 nM pCMV-dR8.91 plasmid in assay buffer was added to assay plate to initiate the reaction. The final concentrations of reagents were 5 nM BRM ATPase-SnAC, 85 μM ATP, and 2 nM pCMV-dR8.91 plasmid. The ATPase reaction was incubated at RT for 60 min. 3 μL of ADP-Glo reagent was added to stop the reaction and was incubated for 30 min at RT. 3 μL of Kinase detection reagent was added to the assay plate which was incubated for 90 min at RT. Plates were read with a 2103 Multilabel Envision reader using ultrasensitive luminescence detection. IC50 values were determined from the average of duplicate data points by non-linear regression analysis of percent inhibition values plotted versus compound concentration. […]

The term IC50 denotes the point on the concentration scale where inhibition reaches its midpoint. For the compound `O=C(Nc1ccnc(Cl)c1)Nc1cc(C(F)(F)F)ns1` [Example 3, 1-(2-chloropyridin-4-yl)-3-(3-(trifluoromethyl)isothiazol-5-yl)urea], it took 10 nM to reach half-maximal inhibition (IC50). In other words, the double-digit nanomolar range.
